Consider one substance from US20250009755A1, “COMPOSITIONS AND METHODS FOR THE TREATMENT OF OCULAR DISEASES AND INJURIES” (Ohio State Innovation Foundation, priority 2021, published 2025).

For one data set, the system named is p38β MAPK. As to the kind of experiment: p38β MAPK immunofluorescent staining of ARPE-19 cells. The class given is cell-based, human. Particulars: 500 μg/mL heme-albumin + 100 μM H2O2, 24 hours, vs H2O2 or basal alone. On the procedure: p38β MAPK Immunofluorescent Staining. Changes in production of the p38β MAPK protein were measured by immunofluorescent staining. ARPE-19 cells were seeded in a 12-well plate before treatment with either 100 μM H2O2 or co-treatment with 100 μM H2O2 and 500 μg/mL of heme-albumin (n=4) Cells without either treatment were used as a negative control. After 24 hour incubation with treatments, cells were fixed with 0.1% Triton X-100 for 10 minutes, blocked with 5% BSA for 1 hr, and stained with p38 β MAPK primary antibody, in 1% BSA, overnight. Mouse IgG secondary antibody was added before DAPI staining.
Heme-Albumin induces p38β MAPK isoform expression.

A further data set concerns Caspase-3. As to the kind of experiment: PCR quantification of caspase-3 gene expression in ARPE-19 cells. Type of data set: cell-based, human. Particulars: 500 μg/mL heme-albumin, oxidative stress conditions. On the procedure:
(§1) PCR Quantification. Investigation of heme-albumin's effect on baseline expression of pro-inflammatory cytokines, compared to control, or heme-albumin's impact on gene expression in oxidative challenge conditions was analysed in an identical manner as described above. 1×10^6 ARPE-19 cells/well were seeded in a 6-well plate (n=6) and treated with 500 μg/mL of heme-albumin after 24 hours. Media was used as a baseline control. The samples were collected and isolated with Tryzol. After RNA quantification, the cDNA was made using SuperScript™ VILO™ cDNA Synthesis Kit. The total mass used to prepare the cDNA was 2500 ng. 50 ng of cDNA was used to perform the PCRs. Human IL-6, IL-1β, Caspase-3, and Caspase-9 were used as target genes for investigation of heme-albumin's impact on pro-apoptotic and inflammatory cytokine expression. Primer sequences for PCR are supplied in Table 1 below. GAPDH was used as a housekeeping gene.
(§2) Treatment of heme-albumin in oxidative stress conditions reduces pro-apoptotic and IL-6 gene expression. The impact of heme-albumin on pro-inflammatory and pro-apoptotic gene expression in oxidative stress conditions was determined and results are presented in FIG. 22.

For another data set, the system named is Caspase-9. As to the kind of experiment: PCR quantification of caspase-9 gene expression in ARPE-19 cells. The class given is cell-based, human. Particulars: 500 μg/mL heme-albumin, oxidative stress conditions, p=0.0468. On the procedure:
as §1, §2

For data set [1], the system named is ARPE-19 cells. Nature of the data set: Oxidative stress assay (DCFDA), LPS inflammatory model. The class given is cell-based, human. As to conditions: 10 μg/mL LPS, 24 h. On the procedure: (§3) Oxidative Stress Assay. The ability of heme-albumin, PDA NPs and heme-albumin loaded PDA NPs to reduce oxidative stress in both inflammatory and ROS models in ARPE-19 cells was investigated using published techniques with slight modifications.^42 Cells were seeded at a density of 4×10^4 cells per well in a 96-well dark walled plate and left to adhere for 24 hours. Therapeutic agent heme-albumin, blank PDA NPs, or heme-albumin loaded PDA NPs were applied at varying concentrations (10-1000 μg/mL or 10-200 μg/mL for both nanoparticle groups, respectively) to the cells directly. In addition to the therapeutic, lipopolysaccharide (LPS) (10 μg/mL) or H2O2 (100 μM) were applied to the wells. After 24 hours of incubation with therapeutic and stressing agent, the cells were washed with 100 μL 1× dilution buffer, stained for 45 minutes with 100 μL of 10 μM DCFDA dye and washed again with dilution buffer before fluorescence at Ex/Em=485/535 nm was measured with the microplate reader.
Oxidative Stress Reduction in Inflammatory Model. Chronic inflammation is a hallmark of dry AMD and plays a crucial role in disease progression to geographic atrophy and wet AMD. […] After 24 hrs, the cells were stained with 10 μM DCFDA stain for 45 minutes before fluorescence was measured at Ex/Em=485/535 nm. […]

The test system of data set [2] is ARPE-19 cells. As to the kind of experiment: Cell viability assay (MTS) with ARPE-19 cells. The class given is cell-based. Particulars: ARPE-19, 24-hour incubation. The source says:
PDA NPs have been synthesized and loaded with anti-VEGF (149 kDa) and model therapeutic bovine serum albumin (BSA) (66.5 kDa), which has similar properties to heme-HSA (67 kDa). These protein-loaded NPs are 160 nm in diameter, an optimal size for intraocular injection through a small needle (FIG. 6A). These NPs were easily injected into ex vivo porcine eyes obtained from a local abattoir through a 31 G needle. […] In preliminary studies, in vitro release of model protein BSA and anti-VEGF (bevacizumab) were evaluated. Drug loading capacity was of 35-40% of the NPs. NPs sustained release of BSA 2-6 months and anti-VEGF at least 3 months in vitro, as determined by BCA and enzyme-linked immunosorbent assays (ELISA). Therapeutics were not completely released from NPs at low levels of oxidative stress at the end of the study (FIG. 7) In vitro cytotoxicity was determined by MTS assay (FIG. 8) and live/dead assay with human retinal pigment epithelial cells (ARPE-19).
Cell Viability Assay. […] The cells were stained for 3 hours before measurement of optical density at 490 nm with Varioskan™ Lux multimode microplate reader using SkanIT software (Thermo Fisher Scientific, Waltham, MA).
Cytotoxicity of Heme-Albumin, Heme-Albumin loaded PDA NPs, and Blank NPs. […] The toxicity of heme-albumin as a therapeutic has yet to be determined and was investigated at varying concentrations. […]

Data set [3] concerns IL-1β. Nature of the data set: PCR quantification of IL-1β gene expression in ARPE-19 cells. Type of data set: cell-based, human. On the procedure:
as §1, with “GAPDH was used as a housekeeping gene.” left out
(§4) To determine heme-albumin's impact on inflammatory signaling in unstressed conditions, PCR analysis was conducted on pro-inflammatory cytokines, IL-1β and IL-6. Cytokines were measured and compared to untreated control.
as §2

The next data set has as its system IL-6. As to the kind of experiment: PCR quantification of IL-6 gene expression in ARPE-19 cells. The class given is cell-based, human. On the procedure:
as §1, with “GAPDH was used as a housekeeping gene.” left out
as §4, §2

The subject of a further data set is phospho-p38 MAPK. Nature of the data set: phospho-p38 MAPK ELISA in ARPE-19 cells. As to conditions: 500 μg/mL heme-albumin. Type of data set: cell-based, human. On the procedure:
(§5) ELISA Quantification. The ability of here-albumin to induce expression of HO-1, under baseline and stressed conditions, was quantified using a heme oxygenase 1 ELISA kit. Heme-albumin's impact on IL-1β and activated p38 MAPK in retinal cells were also measured. Briefly, ARPE-19 cells were seeded in 6-well plates at 1×10^6 cells/well (n=6). Cells were allowed to adhere 24 hours before aspiration of media and treatment with either 500 μg/mL heme-albumin, 100 μM H2O2 or co-treated with heme-albumin and 100 μM H2O2. Fresh media was used as a basal control. Incubation with treatment was continued for 24 hours before analysis. Cell lysis and ELISA were performed via manufacturer's recommendation.
Heme-Albumin increases phospho-p38 MAPK Expression. Induction of HO-1 and production of CO by-product is theorized to provide anti-inflammatory relief through cytokine regulation through the p38 MAPK pathway. […] Compared to basal condition control, heme-albumin caused a 200% increase in activated protein expression.

The test system of data set [4] is IL-1β. Nature of the data set: IL-1β ELISA in ARPE-19 cell lysate and media. Type of data set: cell-based, human. On the procedure:
as §5
Heme-Albumin impacts IL-1β expression with oxidative challenge. To investigate heme-albumin's impact on inflammatory signalling, ELISA quantification of expressed protein was conducted on pro-inflammatory cytokine, IL-1β. Cytokine expression of basal, oxidatively stressed and co-treatment of oxidative stress and heme-albumin in both cell lysate and media was evaluated. Results are shown in FIG. 23 as percent expression compared to control.
(In general: An ELISA detects its analyte on a solid surface through an enzyme-linked reagent.)

For the next data set, the system named is HO-1. As to the kind of experiment: Heme oxygenase 1 ELISA in ARPE-19 cells. Type of data set: cell-based, human. On the procedure: as §5
Heme-Oxygenase 1 Expression is Increased by Heme-Albumin. The proposed therapeutic activity of heme-albumin is provided by induction of the HO-1 enzyme that, through catabolismof heme, generates the anti-inflammatory and antioxidant components CO and biliverdin. Expression of HO-1 by exposure to 500 μg/mL heme-albumin was quantified by ELISA, at both baseline and stressed conditions, as depicted in FIG. 19.

Data set [5] has as its system ARPE-19 cells. As to the kind of experiment: Oxidative stress assay (DCFDA), H2O2 ROS model. The class given is cell-based, human. Particulars: 100 μM H2O2, 24 h, 1000 μg/mL heme-albumin. On the procedure: as §3
Oxidative Stress Reduction in H2O2 ROS Model. With aging and metabolic fatigue, the imbalance that occurs within the posterior segment of the eye results in accumulation of ROS, causing tissue damage and overexpression of inflammatory cytokines and growth factors. The ability of heme-albumin, unloaded PDA NPs, and heme-albumin loaded PDA NPs to reduce oxidative stress from ROS was therefore investigated. […]

The mark [6] stands for this setting: 500 μg/mL heme-albumin without oxidative challenge, vs untreated control.
The mark [7] stands for this setting: 500 μg/mL heme-albumin, oxidative stress conditions.

Several values for one entry are separate records, joined by “and”; a condition that tells them apart may be missing. Equal values may be shown once. Entries after “also recorded” stand apart in the source; their conditions may differ.

By LC50 is commonly meant the concentration lethal to half of the exposed cells or organisms. With “heme-albumin: heme bound to human serum albumin (HSA), synthesized protein complex, 2:1 heme:HSA”, the “p38 MAPK expression (immunofluorescence)” value with p38β MAPK is “increased expression”; in the data set on p38β MAPK (listed as Heme-albumin), “increase total p38 MAPK expression”. In the data set on Caspase-3, the “caspase-3 gene expression (PCR)” value is “nor was there a statistical difference”. Further, the “caspase-9 gene expression (PCR)” value in the data set with Caspase-9 was “statistically significant difference; also recorded: statistically significant reduction”. In addition, in the data set on ARPE-19 cells [1] (maximum reduction at 1000 μg/mL heme-albumin), the “reduction of oxidative stress, LPS model” value was 22±10% and 22%. Further, in the data set on ARPE-19 cells [1] (p<0.05), the “concentrations giving significant reduction in oxidative stress, LPS model” value is on record as “above 200 μg/mL”. Also, the “cytotoxicity (cell viability, MTS)” value in the data set on ARPE-19 cells [2] (100-2000 μg/mL heme-albumin) is “no significant cytotoxicity”. This substance also yielded an LC50 in the data set on ARPE-19 cells [2] (MTS) of more than 2000 µg/mL. Moreover, the “IL-1β gene expression (PCR)” value in the data set on IL-1β [3] (setting [6]) is “do not induce additional cytokine expression; also recorded: did not induce significant additional pro-inflammatory protein expression”; in the data set on IL-1β [3] (setting [7]) it was “not a statistically significant expression”. Moreover, the “IL-6 gene expression (PCR)” value in the data set on IL-6 (setting [6]) is recorded as “do not induce additional cytokine expression; also recorded: did not induce significant additional pro-inflammatory protein expression”; with IL-6 (setting [7]) it was “not a statistically significant expression”. Also, in the data set on phospho-p38 MAPK (compared to basal condition control), the “increase in activated (phospho) p38 MAPK protein expression” value is 200%. The “phospho-p38 MAPK expression” value with phospho-p38 MAPK (compared to basal control, p<0.05) is reported as “significant increase”. The “IL-1β expression in cell lysate (ELISA)” value in the data set on IL-1β [4] (co-treatment 500 μg/mL heme-albumin + 100 μM H2O2, vs basal control) is “neither 100 μM H2O2 challenge or co-treatment with oxidative challenge or heme-albumin caused a statistically significant change”. Also, the “secreted IL-1β in media (ELISA)” value with IL-1β [4] (heme-albumin with oxidative challenge, vs untreated control, p<0.05) is “statistically significant difference; also recorded: statistically significant (p<0.05) increase”. Moreover, the HO-1 expression was determined as 381.1 ± 96.33 pg/mL in the data set on HO-1 (500 μg/mL heme-albumin + 100 μM H2O2, stressed conditions (challenged control 135.9±25.2)) and 274.0 ± 44.3 pg/mL with HO-1 (500 μg/mL heme-albumin, 24 h, baseline conditions (untreated control 118.9±14.9)). Also, in the data set on HO-1 (500 μg/mL heme-albumin, compared to basal and stressed ARPE-19 cells), the “increase in HO-1 concentration” value is given as approximately 3 times. Besides, the figures for the “reduction of oxidative stress, H2O2 ROS model” value in the data set with ARPE-19 cells [5] and with ARPE-19 cells [5] (listed as Heme-albumin) were 17±3% and 17%, respectively.
